# Test: Inhibition of Colwellia psychrerythraea gamma carbonic anhydrase expressed in Escherichia coli incubated for 15 mins prior to testing by stopped flow CO2 hydration method
molecule,measurement,value
SODIUM PERRUTHENATE,Ki,7.9 mM
O=S(=O)(O)NS(=O)(=O)O,Ki,7.9 mM
SODIUM DIVANADATE,Ki,5.8 mM
SODIUM STANNATE,Ki,1.8 mM
SODIUM PERRHENATE,Ki,7.8 mM
